Assay results as given in ChEMBL document CHEMBL1157707, “Lead optimization of N-3-substituted 7-morpholinotriazolopyrimidines as dual phosphoinositide 3-kinase/mammalian target of rapamycin inhibitors: discovery of PKI-402” (J Med Chem, 2010).
pIC50: −log10 of the molar value.

Sequences of proteins named here, by UniProt entry; tags and fusion partners are left off.
UniProt P42336, whole entry: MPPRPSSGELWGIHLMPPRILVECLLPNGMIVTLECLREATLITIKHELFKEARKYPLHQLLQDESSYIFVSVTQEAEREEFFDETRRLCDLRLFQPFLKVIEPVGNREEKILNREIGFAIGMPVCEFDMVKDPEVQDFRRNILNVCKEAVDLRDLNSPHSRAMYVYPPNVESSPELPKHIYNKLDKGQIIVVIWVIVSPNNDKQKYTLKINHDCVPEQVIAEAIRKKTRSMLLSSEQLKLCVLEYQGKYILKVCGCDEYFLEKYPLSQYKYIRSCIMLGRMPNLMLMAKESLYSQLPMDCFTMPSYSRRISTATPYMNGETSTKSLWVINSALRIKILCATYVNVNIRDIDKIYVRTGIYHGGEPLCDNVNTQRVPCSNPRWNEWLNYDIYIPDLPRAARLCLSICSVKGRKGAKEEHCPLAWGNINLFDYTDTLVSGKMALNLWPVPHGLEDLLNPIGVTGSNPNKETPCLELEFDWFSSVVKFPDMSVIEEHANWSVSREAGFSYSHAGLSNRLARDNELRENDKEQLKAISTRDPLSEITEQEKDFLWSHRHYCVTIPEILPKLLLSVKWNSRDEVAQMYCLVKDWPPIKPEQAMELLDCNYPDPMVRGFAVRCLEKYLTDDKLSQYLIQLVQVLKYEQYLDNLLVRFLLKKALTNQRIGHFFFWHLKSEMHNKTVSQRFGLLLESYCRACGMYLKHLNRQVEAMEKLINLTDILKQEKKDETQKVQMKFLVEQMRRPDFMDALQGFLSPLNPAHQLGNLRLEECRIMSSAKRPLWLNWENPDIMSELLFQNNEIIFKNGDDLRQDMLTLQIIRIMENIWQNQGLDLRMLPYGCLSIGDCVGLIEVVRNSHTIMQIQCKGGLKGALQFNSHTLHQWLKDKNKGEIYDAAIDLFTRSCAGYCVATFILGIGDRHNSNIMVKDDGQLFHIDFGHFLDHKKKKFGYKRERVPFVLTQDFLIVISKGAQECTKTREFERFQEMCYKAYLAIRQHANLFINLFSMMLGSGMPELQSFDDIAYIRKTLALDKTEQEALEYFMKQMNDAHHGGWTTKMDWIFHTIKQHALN

Target: Phosphatidylinositol 4,5-bisphosphate 3-kinase catalytic subunit alpha isoform (Homo sapiens, UniProt P42336)

- pIC50: 7.35
Structure (SMILES): OCc1cccc(-c2nc(N3CCOCC3)c3ncn(C4CCN(Cc5ccccc5)CC4)c3n2)c1
